Molecular target: PHF8 (Homo sapiens (Human), UniProt Q9UPP1)
Experiment: PHF8 in vitro enzyme inhibition assay (TR-FRET)
Format: biochemical
Conditions: 3 nM PHF8, H3K9me1-biotin peptide
Excerpt: This assay determines the ability of a test compound to inhibit FBXL11, FBXL10, and PHF8 demethylase activity. Baculovirus expressed FBXL11 (GenBank Accession #NM_012308, AA1-1162) was purchased from BPS Bioscience (Cat#50102). Baculovirus expressed FBXL10 (GenBank Accession #NM_032590, AA 1-650) was purchased from BPS Bioscience (Cat #50120). Baculovirus expressed PHF8 (GenBank Accession NP_055922.1) was purchased from Active Motif (Cat#31435).
The ability of test compounds to inhibit the activity of PHF8 was determined in 384-well plate format under the following reaction conditions: 3 nM PHF8, 200 nM H3K9me1-biotin labeled peptide (Anaspec cat #64358), 0.5 μM alpha-ketoglutaric acid in assay buffer of 50 mM HEPES, pH7.3, 0.005% Brij35, 0.5 mM TCEP, 0.2 mg/ml BSA, 50 μM sodium L-ascorbate, and 5 μM ammonium iron(II) sulfate. Reaction product was determined quantitatively by TR-FRET after the addition of detection reagent Phycolink Streptavidin-allophycocyanin (Prozyme) and Europium-anti-unmodified-histone H3 lysine 9/lysine27 (H3K9/K27) antibody (PerkinElmer) in the presence of 5 mM EDTA in LANCE detection buffer (PerkinElmer) at a final concentration of 25 nM and 0.5 nM, respectively. […]
The ability of the compounds disclosed herein to inhibit demethylase activity was quantified and the respective IC50 value was determined. […]

By UniProt entry, the sequences of proteins in these tests, tags left out. Residues count along the entry.
UniProt Q9UPP1, 37-1060: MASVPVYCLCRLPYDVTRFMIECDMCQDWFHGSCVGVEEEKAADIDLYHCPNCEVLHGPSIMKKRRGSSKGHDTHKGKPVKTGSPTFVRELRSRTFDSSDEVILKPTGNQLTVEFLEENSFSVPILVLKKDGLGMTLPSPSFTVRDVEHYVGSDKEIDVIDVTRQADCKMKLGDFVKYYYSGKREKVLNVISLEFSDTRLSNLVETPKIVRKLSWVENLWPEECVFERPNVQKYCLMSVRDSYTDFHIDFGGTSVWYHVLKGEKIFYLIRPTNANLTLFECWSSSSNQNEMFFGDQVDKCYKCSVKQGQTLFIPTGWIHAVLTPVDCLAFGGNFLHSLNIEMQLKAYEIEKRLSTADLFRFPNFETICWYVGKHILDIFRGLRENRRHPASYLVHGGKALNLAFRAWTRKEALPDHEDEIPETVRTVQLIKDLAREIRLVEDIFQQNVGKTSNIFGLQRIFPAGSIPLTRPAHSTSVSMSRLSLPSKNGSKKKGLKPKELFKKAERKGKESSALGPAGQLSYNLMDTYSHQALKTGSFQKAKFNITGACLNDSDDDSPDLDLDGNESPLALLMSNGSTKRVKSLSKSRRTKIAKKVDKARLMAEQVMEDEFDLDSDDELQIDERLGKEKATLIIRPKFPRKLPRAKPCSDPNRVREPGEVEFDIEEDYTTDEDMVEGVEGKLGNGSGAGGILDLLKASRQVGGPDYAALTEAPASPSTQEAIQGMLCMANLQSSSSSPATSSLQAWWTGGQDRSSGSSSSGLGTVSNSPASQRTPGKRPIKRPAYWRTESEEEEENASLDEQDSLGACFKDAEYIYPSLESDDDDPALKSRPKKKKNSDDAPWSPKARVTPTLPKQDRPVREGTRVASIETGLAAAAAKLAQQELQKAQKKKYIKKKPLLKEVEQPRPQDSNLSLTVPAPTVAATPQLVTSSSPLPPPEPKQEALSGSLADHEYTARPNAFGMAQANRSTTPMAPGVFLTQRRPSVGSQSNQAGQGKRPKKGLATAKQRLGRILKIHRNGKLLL

IC50: 100 to 1000 nM
SMILES: Cn1cnc(-c2cc(-c3c[nH]nn3)ccn2)c1 [Example 1, 2-(1-methylimidazol-4-yl)-4-(1H-triazol-4-yl)pyridine]

Reference: patent publication US10071984B2, “Histone demethylase inhibitors” (Celgene Quanticel Research, Inc., priority 2014, dated 2018)
